# Measured values from patent publication US7915448B2, “Substituted sulfonylaminoarylmethyl cyclopropanecarboxamide as VR1 receptor antagonists” (Pfizer Inc., priority 2005, dated 2011).
# By UniProt entry, the sequences of proteins in these tests, tags left out.
# UniProt Q8NER1, whole entry: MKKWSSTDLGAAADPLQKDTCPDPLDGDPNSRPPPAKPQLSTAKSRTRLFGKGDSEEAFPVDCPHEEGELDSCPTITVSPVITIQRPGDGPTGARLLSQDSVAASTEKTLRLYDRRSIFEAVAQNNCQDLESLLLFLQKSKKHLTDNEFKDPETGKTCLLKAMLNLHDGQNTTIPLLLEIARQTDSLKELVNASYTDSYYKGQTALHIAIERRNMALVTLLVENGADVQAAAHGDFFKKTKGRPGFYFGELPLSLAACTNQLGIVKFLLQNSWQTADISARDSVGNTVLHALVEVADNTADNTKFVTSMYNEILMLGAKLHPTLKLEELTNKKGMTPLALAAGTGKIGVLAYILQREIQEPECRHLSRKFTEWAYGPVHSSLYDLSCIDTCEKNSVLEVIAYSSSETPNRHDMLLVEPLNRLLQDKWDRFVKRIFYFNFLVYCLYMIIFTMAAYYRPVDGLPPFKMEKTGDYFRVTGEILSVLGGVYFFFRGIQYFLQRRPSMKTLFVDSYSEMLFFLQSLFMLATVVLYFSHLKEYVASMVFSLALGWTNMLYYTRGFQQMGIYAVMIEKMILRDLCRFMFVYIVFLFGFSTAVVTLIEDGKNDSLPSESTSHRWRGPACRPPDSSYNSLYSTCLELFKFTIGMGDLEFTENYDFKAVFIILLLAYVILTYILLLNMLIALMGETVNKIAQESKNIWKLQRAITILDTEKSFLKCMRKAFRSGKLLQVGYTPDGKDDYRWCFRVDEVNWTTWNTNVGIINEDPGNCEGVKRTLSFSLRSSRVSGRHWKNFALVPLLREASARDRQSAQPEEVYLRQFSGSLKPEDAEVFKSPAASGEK
# Biological target: human VR1 receptors (Homo sapiens, UniProt Q8NER1)
# Test: Human VR1 antagonist assay (Ca2+ imaging)
# Settings: cells expressing human VR1, fura-2 Ca2+ imaging, FDSS 6000; capsaicin (300 nM) or acid (pH5.8) stimulation, table does not say which
# From the text: Human VR1 Antagonist Assay
# VR1 antagonistic activity can be determined by the Ca^2+ imaging assay using human VR1 highly expressing cells. The cells that highly express human VR1 receptors are obtainable from several different conventional methods. The one standard method is cloning from human Dorsal Root Ganglion (DRG) or kidney according to the methods such as described in the journal article; Nature, 389, pp 816-824, 1997. Alternatively VR1 receptors highly expressing human keratinocytes are also known and published in the journal article (Biochemical and Biophysical Research Communications, 291, pp 124-129, 2002). […] Further more, the method to up regulate human VR1 gene, which is usually a silent gene or don't produce detectable level of VR1 receptors, is also available to obtain propriety cells. Such genetic modification method was described in detail; Nat. Biotechnol., 19, pp 440-445, 2001.
# The cells that express human VR1 receptors were maintained in culture flask at 37° C. in an environment containing 5% CO2 until use in the assay. The intracellular Ca^2+ imaging assay to determine VR1 antagonistic activities were done by following procedures.
# The culture medium was removed from the flask and fura-2/AM fluorescent calcium indicator was added to the flask at a concentration of 5 μM in the medium. The flask was placed in CO2 incubator and incubated for 1 hour. Then the cells expressing the human VR1 receptors were detached from the flask follow by washing with phosphate buffer saline, PBS(−) and re-suspended in assay buffer. […]
# The capsaicin-induced changes in the intracellular calcium concentration were monitored using FDSS 6000 (Hamamatsu Photonics, Japan), a fluorometric imaging system. […]
# The Acid-induced changes in the intracellular calcium concentration were monitored using FDSS 6000 (Hamamatsu Photonics, Japan), a fluorometric imaging system. […]
# The monitoring of the changes in the fluorescence signals (λex=340 nm/380 nm, λem=510-520 nm) was initiated at 1 minute prior to the addition of capsaicin solution or acidic buffer and continued for 5 minute.
row,IC50,Structure (SMILES)
1,42.2 nM,C[C@@H](NC(=O)[C@H]1C[C@]1(C)c1ccc(OC(F)(F)F)cc1)c1cc(F)c(NS(C)(=O)=O)c(F)c1
2,39.6 nM,C[C@@H](NC(=O)[C@H]1C[C@@H]1c1ccc(C(C)(C)C)c(F)c1)c1ccc(NS(C)(=O)=O)c(F)c1
3,71 nM,"Cc1cc([C@@H](C)NC(=O)C2CC2c2ccc(C(F)(F)F)cc2)ccc1NS(C)(=O)=O (stereo partly drawn) [Example 19a, N-((1R)-1-{3-Methyl-4-[(methylsulfonyl)amino]phenyl}ethyl)-2-[4-(trifluoromethyl)phenyl]cyclopropanecarboxamide]"
